Patent US5830452A, “Method for enhancing the anti-tumor therapeutic index of interleukin-2” (Chiron Corporation, priority 1994, dated 1998)

Tests used:
Meth A tumor = experiment: Schedule dependence in Meth A, Tables 5(A) and 5(B); assay type: in vivo, mice; conditions: for Number deaths/total treated: i.v. QD×9
Experimental: (§1) Unmodified IL-2 and PEG (7,000 MW) modified IL-2 (having an apparent molecular weight of 160 kD) were administered to mice who were transplanted with one of three tumor types; Meth A; B 16 melanoma; and Pan-02. The details are more specifically set out in Zimmerman et al., 1989, Cancer Research, 49:6521-6528 which is hereby incorporated by reference in its entirety.
The Meth A model was investigated initially because it was known to be sensitive to IL-2 under a variety of protocols, probably due to the tumor's immunogenic nature. Table 5(A) presents the results of dose-response studies in which unmodified IL-2 was given i..v. once daily for 9 days (QD×9). The maximum dose administered was 12.5 mg/kg/dose (112.5 mg/kg total dose) due to solubility limitations of the IL-2 and iv dosing volume restrictions. This dose level was near the maximum tolerated dose, however, as 1/10 hosts died due to treatment. Complete regressions at the s.c. site of injection were obtained in 3/10 and 4/10 of the animals in the 2 highest dose groups. Further, there were modest dose-dependent anti-tumor effects observed at the 2 lower dose levels, as shown by the TIC % (Table 5(A)).
PEG modified IL-2 (160 kD apparent molecular weight) was also administered to the mice. As shown in Table 5(B), four different treatment schedules were used: Q7D×2, Q4D×3, Q3D×4, and Q2D×5. The 3 total dose levels of 50, 25 or 12.5 mg/kg PEG-IL-2 were based on preliminary single dose studies. A single i.v. dose of PEG-IL-2 at 50, 25 or 12.5 mg/kg was lethal in 5/5, 2/5, or 0/5 Meth A bearing mice, respectively. When these same total doses were divided and delivered by the various schedules, the toxicity of the treatments was schedule dependent. […] The other combinations of dose and schedule were not lethal, with the exception of the 25 mg/kg dose on the Q2D×5 schedule (Table 5(B)). As discussed below, this dependence on the frequency of administration to produce the lethality is related to the minimum plasma concentration of L-2 attained between doses (i.e., the trough).
^a Therapy was initiated 7 days after tumor implant, i.v., daily for
days. Five animals/group/experiment.
^b T/C % calculated as the mean tumor volume of treated animals on da
21/mean tumor volume of control animals on day 21, × 100.
(§2) ^c Treatmentcaused deaths.
^d Complete regressions at the s.c. site of tumor inoculation were
Analysis of Covanance, p set at 0.05.
^f PEGIL-2 was administered i.v. starting 7 days after tumor
inoculation, on the schedules shown. The doses were appropriately divided
in order to deliver the same total dose on the various schedules.

B16 melanoma = experiment: Schedule dependence in B16, Tables 6(A) and 6(B); assay type: in vivo, mice
Experimental: as §1
As in the Meth A studies, the maximum i.v. dose achievable was 112.5 mg/kg total IL-2 on the QD×9 schedule; however in this case, 6/16 animals died at this dose level. The BDF1 mice used for B16 were more sensitive to IL-2 than the Balb/c Meth A hosts at all but the lowest dose; 1/16, 5/16, and 6/16 died at 45, 90, 112.5 mg/kg, respectively.
The anti-tumor efficacy of PEG-IL-2 was studied at 3 dose levels, 18, 12, or 6 mg/kg total dose. These levels were lower than those studied in Meth A because of the increased sensitivity of the BDF1 hosts to its lethal effects, as noted above. […] Further studies are ongoing in this model to more fully establish the doses and length of treatment which produce the maximum therapeutic benefit.
^a IL2 was administered QD × 9, i.v., beginning 1 day after s.c
tumor implant. Five animals/group in 2 experiments, 6 animals/group in th
^b T C is the tumor growth delay, determined as the mean number of
days for the treated tumor volume to reach 500 mm^3 minus the mean
number of days for the control tumor volumes to reach 500 mm^3. Mean
value given for 3 experiments.
as §2
^e PEGIL2 was given iv starting one day after sc tumor implant.
tumor growth through the last day of observation, day 64. These mice were
excluded from the calculation of T C.
^g Not determined due to excessive toxicity of treatment.

rat fibrosarcoma = experiment: Rat subcutaneous fibrosarcoma anti-tumor efficacy and toxicity; assay type: in vivo, Fisher rats; conditions: for anti-tumor effect, computer-driven infusion versus single bolus PEG-IL-2: IL-2 48 hours infusion
Experimental: Four groups of Fisher rats were prepared for the experiment with 4 animals per group as follows:
Total IL-2 dose delivered was 38.4 mg/kg over 48 hours.
Group C: 1.6 mg/kg bolus dose PEG-IL-2 group.
Surgery was performed on all animals in all 4 groups one day prior to the infusions or bolus dose injections. Cannulas were inserted into the femoral vein for infusion and into the jugular vein for blood sampling. Teflon jackets were fitted to the rats to channel the tubing into the pump apparatus and to prevent the animals from dislodging the cannulas. On this same day (one day prior to therapeutic/sham treatment) animals also received fibrosarcoma tumor implants as described below.
The rat fibrosarcoma is a spontaneous solid tumor which is passed as a tumor brei on a bimonthly basis. Tumor brei was maintained frozen in liquid nitrogen in sterile tissue culture medium (RPMI 1640+20% FCS+10% DMSO). A tumor cycle was initiated by thawing a vial of tumor brei and injecting 0.1 ml subcutaneously in the flank of 150 g female Fischer rats. Tumors were passed a minimum of 2 times from frozen before being used in an experiment. A tumor cycle is defined as no greater than 20 passages after which a new vial from the original stock brei is thawed and the cycle restarted. Tumor brei for passage was prepared by excising a 14-18 day tumor, mincing it into ~1 mm^3 pieces and implanting 0.1 ml brie SC in the flank.
The effects of therapy on the rat subcutaneous fibrosarcoma were evaluated by measuring tumor volume in 2 perpendicular directions (L×W^2)2 at selected times over 21-28×(7, 10, 14+21) days.

[1] = 30 mg/kg, Q7D×2, single experiment

In the case of “IL-2: Unmodified interleukin-2, recombinant or natural human; lymphokine, T cell growth factor”, the Number deaths/total treated (Meth A tumor; 9 mg/kg total) is reported as 0/10, the T/C % (Meth A tumor; 9 mg/kg total, i.v. QD×9, day 21) is reported as 66.2% and the Complete regressions (Meth A tumor; 9 mg/kg total, i.v. QD×9, day 35) is reported as 1/10. The Number deaths/total treated (Meth A tumor; 45 mg/kg total) was 0/15, the T/C % (Meth A tumor; 45 mg/kg total, i.v. QD×9, day 21) was 22.0% and the Complete regressions (Meth A tumor; 45 mg/kg total, i.v. QD×9, day 35) was 0/15. For the same substance, the Number deaths/total treated (Meth A tumor; 90 mg/kg total) was 0/10, the T/C % (Meth A tumor; 90 mg/kg total, i.v. QD×9, day 21) was 5.3% and the Complete regressions (Meth A tumor; 90 mg/kg total, i.v. QD×9, day 35) was 3/10. For the same substance, the Number deaths/total treated (Meth A tumor; 112.5 mg/kg total) was 1/10, the T/C % (Meth A tumor; 112.5 mg/kg total, i.v. QD×9, day 21) was 6.9% and the Complete regressions (Meth A tumor; 112.5 mg/kg total, i.v. QD×9, day 35) was 4/10 and 4/9. The Number deaths/total treated (B16 melanoma; 9 mg/kg total, i.v. QD×9) was 0/16, the “T - C (tumor growth delay)” value (B16 melanoma; 9 mg/kg total, i.v. QD×9) was 1.5 days and the Number deaths/total treated (B16 melanoma; 45 mg/kg total, i.v. QD×9) was 1/16. The “T - C (tumor growth delay)” value (B16 melanoma; 45 mg/kg total, i.v. QD×9) was 2.6 days, the Number deaths/total treated (B16 melanoma; 90 mg/kg total, i.v. QD×9) was 5/16 and the “T - C (tumor growth delay)” value (B16 melanoma; 90 mg/kg total, i.v. QD×9) was 2.9 days. The Number deaths/total treated (B16 melanoma; 112.5 mg/kg total, i.v. QD×9) was 6/16, the “T - C (tumor growth delay)” value (B16 melanoma; 112.5 mg/kg total, i.v. QD×9) was 3.5 days and the “complete regressions in B16” value (B16 melanoma; i.v. QD×9, even at toxic levels) was “no complete regressions”. The toxicity (rat fibrosarcoma; 2.0 mg/kg/day) was “too toxic”, the “anti-tumor effect, computer-driven infusion versus single bolus PEG-IL-2” value (rat fibrosarcoma) was “no statistically significant difference” and the “bolus versus continuous infusion” value (rat fibrosarcoma; rat fibrosarcoma model) was “confirmed”. For the same substance, the “amount of IL-2 deliverable with peak/trough profile, no incremental toxicity” value (rat fibrosarcoma; same area under the blood clearance curve) was 20 -fold and the MTD (rat fibrosarcoma; ×10) was 1.0 mg/kg/day.
With “160 kD PEG IL-2: PEG (7,000 MW) modified IL-2 having an apparent molecular weight of 160 kD” the Complete regressions (Meth A tumor; 12.5 mg/kg total, i.v. Q2D×5) was 0/5, the T/C % (Meth A tumor; 12.5 mg/kg total, i.v. Q2D×5) was 20.3% and the Complete regressions (Meth A tumor; 12.5 mg/kg total, i.v. Q3D×4) was 2/5. For the same substance, the T/C % (Meth A tumor; 12.5 mg/kg total, i.v. Q3D×4) was 14.1%, the Complete regressions (Meth A tumor; 12.5 mg/kg total, i.v. Q4D×3) was 0/10 and the T/C % (Meth A tumor; 12.5 mg/kg total, i.v. Q4D×3) was 56.3%. For the same substance, the Complete regressions (Meth A tumor; 12.5 mg/kg total, i.v. Q7D×2) was 3/10, the T/C % (Meth A tumor; 12.5 mg/kg total, i.v. Q7D×2) was 17.9% and the Complete regressions (Meth A tumor; 25 mg/kg total, i.v. Q3D×4) was 2/5. For the same substance, the T/C % (Meth A tumor; 25 mg/kg total, i.v. Q3D×4) was 10.5%, the Complete regressions (Meth A tumor; 25 mg/kg total, i.v. Q4D×3) was 2/10 and the T/C % (Meth A tumor; 25 mg/kg total, i.v. Q4D×3) was 23.9%. For the same substance, the Complete regressions (Meth A tumor; 25 mg/kg total, i.v. Q7D×2) was 8/10, the T/C % (Meth A tumor; 25 mg/kg total, i.v. Q7D×2) was 7.6% and the toxicity by schedule (Meth A tumor; 50 mg/kg total) was “toxicity was observed only on the Q7D×2 and Q2D×5 schedules”. For the same substance, the Complete regressions (Meth A tumor; 50 mg/kg total, i.v. Q3D×4) was 0/5, the T/C % (Meth A tumor; 50 mg/kg total, i.v. Q3D×4) was 7.6% and the Complete regressions (Meth A tumor; 50 mg/kg total, i.v. Q4D×3) was 2/10. For the same substance, the T/C % (Meth A tumor; 50 mg/kg total, i.v. Q4D×3) was 17.4%, the Complete regressions (Meth A tumor; 50 mg/kg total, i.v. Q7D×2) was 5/6 and the T/C % (Meth A tumor; 50 mg/kg total, i.v. Q7D×2) was 49%. For the same substance, the “anti-tumor efficacy compared to unmodified IL-2” value (Meth A tumor; Meth A, B16, and Pan-02, equitoxic doses) was “superior to that of unmodified IL-2”, the lethality (Meth A tumor; Q2D×5 schedule) was about 100% and the Number deaths/total treated (B16 melanoma; 6 mg/kg total, i.v. Q3D×4) was 6/10. For the same substance, the “T - C (tumor growth delay)” value (B16 melanoma; 6 mg/kg total, i.v. Q3D×4) was 7.2 days, the Number deaths/total treated (B16 melanoma; 6 mg/kg total, i.v. Q4D×3) was 0/10 and the “T - C (tumor growth delay)” value (B16 melanoma; 6 mg/kg total, i.v. Q4D×3) was 7.2 days. For the same substance, the Number deaths/total treated (B16 melanoma; 6 mg/kg total, i.v. Q7D×2) was 0/16, the “T - C (tumor growth delay)” value (B16 melanoma; 6 mg/kg total, i.v. Q7D×2) was 8.1 days and the Number deaths/total treated (B16 melanoma; 12 mg/kg total, i.v. Q3D×4) was 10/10. The Number deaths/total treated (B16 melanoma; 12 mg/kg total, i.v. Q4D×3) was 1/10, the “T - C (tumor growth delay)” value (B16 melanoma; 12 mg/kg total, i.v. Q4D×3) was 10.1 days and the Number deaths/total treated (B16 melanoma; 12 mg/kg total, i.v. Q7D×2) was 0/16. The “T - C (tumor growth delay)” value (B16 melanoma; 12 mg/kg total, i.v. Q7D×2) was 10.0 days, the “increase in T-C compared to unmodified IL-2, highest non-lethal doses” value (B16 melanoma; 18 mg/kg Q7D×2 vs IL-2 9 mg/kg QD×9) was “over 9 -fold” and the Number deaths/total treated (B16 melanoma; 18 mg/kg total, i.v. Q3D×4) was 10/10. For the same substance, the Number deaths/total treated (B16 melanoma; 18 mg/kg total, i.v. Q4D×3) was 9/10, the Number deaths/total treated (B16 melanoma; 18 mg/kg total, i.v. Q7D×2) was 0/16 and the “T - C (tumor growth delay)” value (B16 melanoma; 18 mg/kg total, i.v. Q7D×2) was 13.6 days. The “complete block of tumor growth (all treated animals)” value (B16 melanoma; 18 mg/kg, Q7D×2) was 3/16, the “mean tumor growth inhibition compared to controls” value (B16 melanoma; 18 mg/kg, Q7D×2, day 28 post-implant) was at least 95% and the “complete block of tumor growth (third experiment)” value (B16 melanoma; 18 mg/kg, Q7D×2, through day 64) was 3/6 and Three of six. The “efficacy versus 18 mg/kg” value (B16 melanoma; [1]) was “no greater efficacy than with 18 mg/kg”, the lethality (B16 melanoma; [1]) was “no lethality” and the “increase in tumor growth delay (T-C) compared to unmodified IL-2 at lethal doses” value (B16 melanoma; PEG-IL-2 at non-lethal doses) was 2 -fold. The lethality (B16 melanoma; Q4D×3 or Q3D×4 schedule, 18, 12, or 6 mg/kg) was “clear dose-dependent lethality”, the lethality (B16 melanoma; Q7D×2 schedule, 18, 12, or 6 mg/kg) was “did not produce lethality” and the “anti-tumor effect, computer-driven infusion versus single bolus PEG-IL-2” value (rat fibrosarcoma) was “no statistically significant difference”. For the same substance, the “improvement in potency (comparison of total doses delivered)” value (rat fibrosarcoma; rough estimate versus IL-2) was ~20 -fold and the “anti-tumor efficacy compared with IL-2” value (rat fibrosarcoma; versus IL-2 given for 5 or 10 days) was “significantly better than IL-2 given for 5 or 10 days”.

“And” between values parts separate entries of the source, which are not always exact repeats. Identical values can stand only once.
